# Test results taken from patent publication US20260042755A1, “GPR6 INVERSE AGONISTS” (MapLight Therapeutics, Inc., priority 2022, published 2026).
# Amino acid sequences for entries named in this document (tags omitted).
# UniProt P46095, whole entry: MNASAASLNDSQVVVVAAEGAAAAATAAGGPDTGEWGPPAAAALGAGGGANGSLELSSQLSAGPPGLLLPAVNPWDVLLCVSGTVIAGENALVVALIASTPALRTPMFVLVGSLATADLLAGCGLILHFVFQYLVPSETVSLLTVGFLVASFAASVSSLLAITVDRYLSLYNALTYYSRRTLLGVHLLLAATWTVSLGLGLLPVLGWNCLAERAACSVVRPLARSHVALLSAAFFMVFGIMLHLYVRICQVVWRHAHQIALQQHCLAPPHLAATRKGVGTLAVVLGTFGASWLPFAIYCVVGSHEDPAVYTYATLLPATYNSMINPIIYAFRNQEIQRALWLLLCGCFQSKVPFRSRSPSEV
# UniProt P46089, whole entry: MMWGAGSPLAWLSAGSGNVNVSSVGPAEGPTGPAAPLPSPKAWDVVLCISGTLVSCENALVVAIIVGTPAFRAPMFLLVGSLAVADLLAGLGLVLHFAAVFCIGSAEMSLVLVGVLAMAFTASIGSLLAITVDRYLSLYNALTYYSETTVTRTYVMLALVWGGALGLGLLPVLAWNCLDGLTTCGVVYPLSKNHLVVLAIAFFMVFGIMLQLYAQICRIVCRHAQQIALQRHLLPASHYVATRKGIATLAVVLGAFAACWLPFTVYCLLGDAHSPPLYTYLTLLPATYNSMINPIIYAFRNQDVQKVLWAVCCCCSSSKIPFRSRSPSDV
# Like-named read-outs stand apart in the source and are kept apart here.
# What was measured:
# GPR6 = GPR6 (Homo sapiens, UniProt P46095); assay: GPR6 antagonist functional cAMP assay (LANCE Ultra cAMP TR-FRET, CHO cells stably expressing GPR6); conditions: read-out: GPR6 IC50
# Description: (§1) Example 56. GPR6 and GPR3 Antagonist Functional cAMP Assay
# (§2) CHO cells stably expressing GPR6 or GPR3 receptors were dissociated from cell culture flasks and incubated for 2 h at 37° C. in a 10 cm dish in a humidified incubator. Cells were dissociated, counted to have 1e6 cells/mL (4.5e6 cells needed/384-well plate), washed once in starved media, than in D-PBS and finally suspended in assay buffer (Krebs-Ringer Bicarbonate Buffer with 1800 mg/L glucose, without calcium chloride and sodium bicarbonate (Sigma) in the presence of 0.1% BSA and 150 μM of Ro 20-1724 Phosphodiesterase inhibitor).
# (§3) Cells in suspension from above were plated in 384-well white Optiplate (PerkinElmer) at 10,000 cells/well/10 μl, briefly centrifuged prior direct addition of compounds ([…]) in 10 mM DMSO using a Tecan D300e Digital Dispenser, final DMSO in each well was normalized to 0.1%. Cells were incubated in the presence of compounds for 45 min at 37° C. in a humidified incubator.
# (§4) To measure cAMP levels, LANCE® Ultra cAMP assay (Perkin Elmer), a homogeneous time-resolved fluorescence resonance energy transfer (TR-FRET) immunoassay was used following manufacturer's recommendations. Plates were shaken for 1 h at room temperature before reading on a Tecan InfiniteF200Pro multi-mode plate reader using standard FRET settings (Excitation 340 nm, Emission at 615 nm). FRET values were reported as readings obtained at 665 nm. Data were normalized to DMSO (0.1%) and reference compounds (100%) and fit to a 4-parameter logistical fit to generate antagonist IC50s.
# GPR3 = GPR3 (Homo sapiens, UniProt P46089); assay: GPR3 antagonist functional cAMP assay (LANCE Ultra cAMP TR-FRET, CHO cells stably expressing GPR3); conditions: read-out: GPR3 IC50
# Description: as §1, §2, §3, §4
# [1] = CHO cells stably expressing GPR6, cAMP assay (Example 24)
# [2] = CHO cells stably expressing GPR3, cAMP assay (Example 24)
Compound,IC50 (GPR6; [1]),IC50 (GPR3; [2]),IC50 (GPR6; procedure of Example 24),IC50 (GPR3; procedure of Example 24),further results
COCCOc1cc2nc(-c3cnn(CF)c3)c(N3CCN(Cc4ccc(F)cc4F)CC3)nc2cn1,–,–,0.1 to 1 µM,1 to 30 µM,–
"CC(C)(O)C(C)(O)c1cc2nc(-c3cnn(C(F)F)c3)c(N3CCN(Cc4cc(F)ccc4F)CC3)nc2cn1 (single isomer, unassigned)",–,–,0.1 to 1 µM,1 to 30 µM,–
"CC(C)(O)C(O)c1cc2nc(-c3cnn(CF)c3)c(N3CCC(Cc4ccc(F)cc4F)CC3)nc2cn1 (single isomer, unassigned)",–,–,< 0.1 µM,< 0.1 µM,–
"CCn1cc(-c2nc3cc(C(O)C(C)(C)O)ncc3nc2N2CCN(Cc3ccc(F)cc3F)CC2)cn1 (single isomer, unassigned)",–,–,–,–,"IC50 (GPR6; CHO cells stably expressing GPR6, cAMP assay): < 0.1 µM; IC50 (GPR3; CHO cells stably expressing GPR3, cAMP assay): 0.1 to 1 µM"

# Now from value to compound, other results behind:
IC50 (GPR6; [1]),IC50 (GPR3; [2]),IC50 (GPR6; procedure of Example 24),IC50 (GPR3; procedure of Example 24),Compound,further results
0.1 to 1 µM,1 to 30 µM,–,–,CC(=O)N1CCc2nc(N3CCC(Oc4ccc(F)cc4F)CC3)c(-c3cccc(OC(F)F)n3)nc2C1,–
0.1 to 1 µM,1 to 30 µM,–,–,COc1cnc(-c2nc3c(nc2N2CCC(Oc4ccc(F)cc4F)CC2)CCN(C(C)=O)C3)cn1,–
